Source: ChEMBL document CHEMBL3400062, “Synthesis of novel C5-curcuminoid-fatty acid conjugates and mechanistic investigation of their anticancer activity” (Bioorg Med Chem Lett, 2015)
Values after ≈ are worked out from the molar mass of the structure shown.

The chains behind the UniProt entries cited, without tags or fusion partners. Residues count along the entry.
UniProt Q00653, 1-454 limits assumed: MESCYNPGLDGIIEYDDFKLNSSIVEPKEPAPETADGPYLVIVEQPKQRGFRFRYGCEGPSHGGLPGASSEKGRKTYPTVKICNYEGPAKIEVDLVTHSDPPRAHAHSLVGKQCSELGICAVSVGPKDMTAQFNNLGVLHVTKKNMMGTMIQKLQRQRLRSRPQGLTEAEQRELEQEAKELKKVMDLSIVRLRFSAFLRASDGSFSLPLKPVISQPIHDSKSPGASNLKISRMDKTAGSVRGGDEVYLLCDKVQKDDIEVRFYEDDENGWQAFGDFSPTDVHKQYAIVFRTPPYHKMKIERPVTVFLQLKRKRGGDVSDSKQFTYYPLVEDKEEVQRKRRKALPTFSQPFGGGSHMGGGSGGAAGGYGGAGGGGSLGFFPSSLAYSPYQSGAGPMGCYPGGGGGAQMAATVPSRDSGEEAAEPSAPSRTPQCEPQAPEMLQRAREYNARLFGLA
UniProt P19838, 1-433 limits assumed: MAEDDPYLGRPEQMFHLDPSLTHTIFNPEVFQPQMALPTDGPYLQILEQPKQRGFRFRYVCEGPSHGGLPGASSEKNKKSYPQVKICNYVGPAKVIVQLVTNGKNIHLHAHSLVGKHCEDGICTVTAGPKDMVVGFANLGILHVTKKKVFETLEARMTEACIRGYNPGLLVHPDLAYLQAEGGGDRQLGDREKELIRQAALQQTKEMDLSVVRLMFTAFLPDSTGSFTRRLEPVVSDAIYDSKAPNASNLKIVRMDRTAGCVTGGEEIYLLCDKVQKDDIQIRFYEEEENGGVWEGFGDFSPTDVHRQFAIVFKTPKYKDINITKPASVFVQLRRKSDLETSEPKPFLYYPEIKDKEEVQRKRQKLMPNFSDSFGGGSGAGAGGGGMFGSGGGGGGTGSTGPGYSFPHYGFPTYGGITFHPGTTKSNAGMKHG
UniProt Q04206, whole entry: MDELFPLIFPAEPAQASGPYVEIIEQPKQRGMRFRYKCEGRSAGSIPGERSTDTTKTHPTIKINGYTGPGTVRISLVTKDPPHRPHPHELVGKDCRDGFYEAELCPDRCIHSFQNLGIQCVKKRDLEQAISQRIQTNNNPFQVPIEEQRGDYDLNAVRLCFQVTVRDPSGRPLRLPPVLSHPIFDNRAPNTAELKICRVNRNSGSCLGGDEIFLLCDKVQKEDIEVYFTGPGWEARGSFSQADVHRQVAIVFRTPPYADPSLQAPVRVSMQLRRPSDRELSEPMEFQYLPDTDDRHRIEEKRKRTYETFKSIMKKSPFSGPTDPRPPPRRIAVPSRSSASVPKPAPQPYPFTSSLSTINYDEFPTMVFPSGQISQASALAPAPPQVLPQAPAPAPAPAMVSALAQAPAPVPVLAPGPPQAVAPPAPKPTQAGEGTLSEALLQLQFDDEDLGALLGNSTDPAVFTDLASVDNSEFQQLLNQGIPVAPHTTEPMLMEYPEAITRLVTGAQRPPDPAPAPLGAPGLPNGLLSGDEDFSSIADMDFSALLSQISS

Molecular target: Nuclear factor NF-kappa-B complex (Homo sapiens, UniProt Q00653+P19838+Q04206)
Experiment: Inhibition of TNFalpha-induced nuclear factor-kappa-B (unknown origin) expressed in HEK293 cells pre-incubated for 16 hrs followed by TNFalpha stimulation for 6 hrs by luciferase reporter gene assay
Format: cell-based
Method in brief: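 NFκB reporter HEK293 cells seeded at 30,000/well in assay medium without hygromycin B and allowed to reattach overnight at 37°C, 5% CO2. Compound dilutions added for 16 h (DMSO in untreated and cell-free controls). Mouse TNFα 5 ng/mL then added for 6 h. Cells lysed with one-step luciferase reagent about 15 min at room temperature, luminescence read. Non-linear regression; triplicate, mean ± SEM.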

Question: How did the IC50 turn out when `COc1cc(/C=C/C(=O)CC(=O)/C=C/c2ccc(O)c(OC)c2)ccc1O` [CURCUMIN] was run?
Answer: 7.7 µg/mL (≈ 20.9 µM)
